Assay [1] deals with Matrix metalloproteinase-9 (Homo sapiens, UniProt P14780). Description: Inhibitory activity against matrix metalloprotease 9 (MMP-9).
A further assay addresses Collagenase 3 (Homo sapiens, UniProt P45452). As to the kind of experiment: Inhibitory activity against matrix metalloprotease 13 (MMP-13).
In the next assay the target is T1, Interstitial collagenase (Homo sapiens, UniProt P03956).
T1 sequence (P03956 whole entry): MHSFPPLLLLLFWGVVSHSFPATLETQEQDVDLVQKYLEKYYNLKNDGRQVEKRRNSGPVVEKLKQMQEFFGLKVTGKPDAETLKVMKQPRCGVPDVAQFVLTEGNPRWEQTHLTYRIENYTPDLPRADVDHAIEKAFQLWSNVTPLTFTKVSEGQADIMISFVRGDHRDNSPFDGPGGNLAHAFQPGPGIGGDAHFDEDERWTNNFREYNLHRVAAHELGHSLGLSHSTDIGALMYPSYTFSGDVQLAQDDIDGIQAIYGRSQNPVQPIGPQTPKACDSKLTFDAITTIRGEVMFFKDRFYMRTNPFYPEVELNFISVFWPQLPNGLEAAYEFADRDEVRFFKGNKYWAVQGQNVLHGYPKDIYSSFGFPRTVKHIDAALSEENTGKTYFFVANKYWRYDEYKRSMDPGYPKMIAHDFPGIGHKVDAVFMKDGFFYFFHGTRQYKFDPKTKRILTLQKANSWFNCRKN
As to the kind of experiment: Inhibitory activity against matrix metalloprotease 1 (MMP-1).

By UniProt entry, the sequences of proteins in these tests, tags left out. Where a name states a change or a piece, a line headed by the entry shows the natural chain unless it says otherwise.
UniProt P14780: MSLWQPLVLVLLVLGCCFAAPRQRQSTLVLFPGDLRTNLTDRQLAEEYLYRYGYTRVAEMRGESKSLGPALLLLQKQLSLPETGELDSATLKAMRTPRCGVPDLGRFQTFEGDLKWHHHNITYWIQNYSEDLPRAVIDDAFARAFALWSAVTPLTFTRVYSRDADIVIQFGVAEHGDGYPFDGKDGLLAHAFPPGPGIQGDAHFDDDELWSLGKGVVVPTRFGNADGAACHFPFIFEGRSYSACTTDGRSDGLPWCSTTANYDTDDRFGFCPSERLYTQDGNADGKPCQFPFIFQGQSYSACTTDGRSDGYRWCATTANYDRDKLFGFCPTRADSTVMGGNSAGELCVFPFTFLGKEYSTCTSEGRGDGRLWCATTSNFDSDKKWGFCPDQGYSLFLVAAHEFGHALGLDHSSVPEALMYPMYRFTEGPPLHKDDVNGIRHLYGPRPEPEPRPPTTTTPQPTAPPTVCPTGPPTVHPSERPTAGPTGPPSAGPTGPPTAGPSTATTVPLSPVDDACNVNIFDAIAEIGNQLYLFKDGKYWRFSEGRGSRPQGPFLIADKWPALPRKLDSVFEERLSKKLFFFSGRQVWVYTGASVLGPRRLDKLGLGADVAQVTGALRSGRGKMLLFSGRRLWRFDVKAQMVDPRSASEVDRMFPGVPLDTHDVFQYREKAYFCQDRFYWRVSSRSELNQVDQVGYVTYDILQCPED

Broadly, the IC50 is the concentration at which inhibition is half-maximal.

With `Cc1nn(C)c2ncc(C(=O)NO)c(N(C)S(=O)(=O)c3ccc(Oc4ccc(Cl)cc4)cc3)c12`, the IC50 (in assay [1]; on Collagenase 3) was 1 nM each time.
Compound `COc1ccc(S(=O)(=O)N(Cc2cccnc2)c2c(C(=O)NO)cnc3cc(C(F)(F)F)ccc23)cc1` registered an IC50 on Interstitial collagenase of 77 nM.
Still for that read-out and setting: the value for `CC#CCOc1ccc(S(=O)(=O)N(C)c2c(C(=O)NO)cnc3c2c(C)nn3C)cc1` was 1000 nM; that for `O=C(NO)c1cnc2cc(C(F)(F)F)ccc2c1N(Cc1cccnc1)S(=O)(=O)c1ccc(-c2ccccc2)cc1` was 4200 nM; that for `COc1ccc(S(=O)(=O)N(Cc2ccccc2)c2c(C(=O)NO)cnc3ccc(C(F)(F)F)cc23)cc1` was 172 nM.
Same read-out and setting: the value for `COc1ccc(S(=O)(=O)N(Cc2ccccc2)c2c(C(=O)NO)cnc3cc(Br)ccc23)cc1` was 172 nM.

The record behind these values is ChEMBL document CHEMBL1136711, “Synthesis and SAR of bicyclic heteroaryl hydroxamic acid MMP and TACE inhibitors” (Bioorg Med Chem Lett, 2003).
